Test [1] concerns the target immunoproteasome from human peripheral blood mononuclear cells (PBMCs), C-L (β1) activity (Homo sapiens, UniProt P28065). Description: In vitro proteasome activity assay, immunoproteasome, C-L (β1). Format: biochemical.
The target in test [2] is immunoproteasome from human peripheral blood mononuclear cells (PBMCs), CT-L (β5) activity (Homo sapiens, UniProt P20618+P28062). Description: In vitro proteasome activity assay, immunoproteasome, CT-L (β5). Format: biochemical.
Test [3] concerns SK—N—Be(2)c neuroblastoma cells. Description: Cell viability assay (MTS), SK—N—Be(2)c neuroblastoma cells. The note with it: highest concentration tested (1 μM), 24 hours exposure.
The test system of test [4] is MYCN2 neuroblastoma cells. Description: Cell viability assay (MTS), MYCN2 neuroblastoma cells. To be noted: highest concentration tested (1 μM), 24 hours exposure.
Test [5] relates to SK—N—SH neuroblastoma cells. In words: Cell viability assay (MTS), SK—N—SH neuroblastoma cells. To be noted: highest concentration tested (1 μM), 24 hours exposure.

`CC(C)[C@H](NC(=O)c1cnccn1)C(=O)N[C@H]1CSCCNC(=O)/C=C/[C@H](C)NC1=O` [Compound 6, N—((S)-3-Methyl-1-(((8S,11R,E)-8-methyl-5,10-dioxo-1-thia-4,9-diazacyclododec-6-en-11-yl)amino)-1-oxobutan-2-yl)pyrazine-2-carboxamide]: the “effect on C-L activity of the immunoproteasome” value in test [1] is recorded as “no effect”. Besides, in test [2] (1.0 μM, 2 hours), the “effect on CT-L (chymotrypsin-like) activity of the immunoproteasome (FIG. 5)” value is given as “stimulate”. The “effect on CT-L activity of the immunoproteasome” value in test [2] (at ≤10 μM) is listed as “no effect”. In addition, the “effect on viability of SK—N—Be(2)c cells” value in test [3] was “minimal effects”. Further, in test [4], the “effect on viability of MYCN2 cells” value was “minimal effects”. In addition, the “effect on viability of SK—N—SH cells” value in test [5] is listed as “minimal effects”.

The values are drawn from patent US10584105B2, “Immunoproteasome inhibitor analogs” (The Regents of the University of California, priority 2016, dated 2020).
